The values that follow come from patent US4380535A, “Enkephalin degrading enzyme inhibitors” (priority 1981, dated 1983).

This experiment has as its system opiate receptor. As to the kind of experiment: opiate receptor affinity, 3H-naloxone displacement in rat brain homogenate (modified Chang). In kind it is binding. The conditions noted are these: 3H-naloxone displacement (ID50) relative to morphine, with NaCl.

Consider `CN1CC[C@]23c4c5ccc(O)c4O[C@H]2[C@@H](O)C=C[C@H]3[C@H]1C5` [morphine, reference compound], for which the “relative displacement potency as compared to morphine (1)” value was 1.
